## Yeast mating assay 1: variants of the scFv Ab-14

The measurements come from Engelhart et al. 2022 (doi:10.1038/s41597-022-01779-4) through the FLAb antibody collection.

Target: peptide PDVDLGDISGINAS, taken from heptad repeat 2 (HR2) of SARS-CoV-2 spike.

Parent: Ab-14, a human scFv built as VH, the linker GGGGSGGGGSGGGGS, VL. Only the CDRs of the light chain vary.
VH: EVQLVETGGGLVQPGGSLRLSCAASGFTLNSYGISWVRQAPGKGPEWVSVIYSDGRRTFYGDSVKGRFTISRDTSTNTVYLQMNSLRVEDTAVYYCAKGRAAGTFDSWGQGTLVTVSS
VL: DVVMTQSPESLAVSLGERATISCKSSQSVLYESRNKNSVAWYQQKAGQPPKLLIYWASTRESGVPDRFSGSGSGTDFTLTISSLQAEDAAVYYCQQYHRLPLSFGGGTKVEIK

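The starting antibody came from a phage panning campaign against this peptide. In library AAYL50, one, two or three CDR residues were substituted; doubles and triples were drawn at random. AlphaSeq pools MATa yeast showing the antibodies with MATalpha yeast showing the peptide. Mating (16 h, 30 °C) was followed by selection of diploids and sequencing of their barcodes. A regression on co-assayed BCL2-family reference pairs converts the normalised counts of each replicate to an apparent Kd. Each pool was mated in three replicate cultures.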

Variants are written as CDR1, CDR2 and CDR3 of the light chain (limits as in the source). Parent: KSSQSVLYESRNKNSVA, WASTRES, QQYHRLPLS. This list gathers variants with a substitution at L30 (VL, numbered from residue 1). Each Kd is an estimate from the mating assay, the geometric mean of the replicates in which the pair was seen; lower is stronger. "not detected" marks a missing value. The strain was present, yet no cells mated with the target were sequenced in any replicate, which points to weak or no binding. Nonspecific signal, from three strains lacking the peptide, appeared in 18% of pairings of library AAYL50, centred on 15 µM (5% of these signals below 970 nM); values are not corrected for it.

| CDR-L1 | CDR-L2 | CDR-L3 | apparent Kd | seen in |
|---|---|---|---|---|
| KSSQSVVYESRNKNSVG | WASTRES | QQYHHLPLS | not detected | 0/3 |
| KSSQSVDYESRKKNSVA | WASTRES | VQYHRLPLS | 45 nM | 3/3 |
| KSSQSVGYESWNKNSVA | WASTRES | QKYHRLPLS | not detected | 0/3 |
| ASSHSVCYESRNKNSVA | WASTRES | QQYHRLPLS | 500 nM | 3/3 |
| KSSQSVEYESRNKNSVA | WADTWES | QQYHRLPLS | 6.0 µM | 1/3 |
| KSSQSVQYESRNKNSWA | WASTRES | SQYHRLPLS | 11 µM | 1/3 |
| KSSQSVIYESRNKNSVA | WASTRES | QQYHILPLA | 18 nM | 3/3 |
| KSSQSVCYEKRNKNSVA | WASFRES | QQYHRLPLS | 590 nM | 3/3 |
| KSSQSVCYESRNMNSVA | WASTRES | QQIHRLPLS | 110 nM | 3/3 |
| KSSQSFVYESRNKNSVA | WASTRES | QQYHRLPLS | 9.0 nM | 3/3 |
| KSSQSGQYESRHKNSVA | WASTRES | QQYHRLPLS | 160 nM | 3/3 |
| KSSQSVYYESRNKNSVA | WASTRES | QQWHRLPLS | not detected | 0/3 |
| KSSQSVYYEERNKNTVA | WASTRES | QQYHRLPLS | 150 nM | 3/3 |
| KSSQSVCYESRNSNSVA | WASTRES | QQYHWLPLS | 190 nM | 3/3 |
| KSSQIVCYPSRNKNSVA | WASTRES | QQYHRLPLS | 340 nM | 3/3 |
| KSSQSVSYESRKKNSVA | WASTLES | QQYHRLPLS | 100 nM | 3/3 |
| KSSQSVHYESPTKNSVA | WASTRES | QQYHRLPLS | 53 nM | 3/3 |
| KSNQSVFYESRNKESVA | WASTRES | QQYHRLPLS | 62 nM | 3/3 |
| KSCQSVMPESRNKNSVA | WASTRES | QQYHRLPLS | 160 nM | 3/3 |
| KSSQSVCYESWNLNSVA | WASTRES | QQYHRLPLS | 29 nM | 3/3 |
| KSSQKVKYESRNKNSVA | WASTRES | QQYHRLPLC | 23 nM | 3/3 |
| KSSQSVSWYSRNKNSVA | WASTRES | QQYHRLPLS | 8.9 nM | 3/3 |
| KSSQSLKYESRNKNSVA | WASTRES | QQYHRMPLS | 10 nM | 3/3 |
| KSSQSGKYESRNKVSVA | WASTRES | QQYHRLPLS | not detected | 0/3 |
| KCSQSVSYESRNKNSVA | WMSTRES | QQYHRLPLS | 24 nM | 3/3 |
| KSSQFVSYEERNKNSVA | WASTRES | QQYHRLPLS | 3.9 µM | 1/3 |
| KSSQSVAYESRNKESVA | WASTRLS | QQYHRLPLS | 31 nM | 3/3 |
| KSWQSVCYESRNKNSVA | SASTRES | QQYHRLPLS | not detected | 0/3 |
| KSSQSVCYEARNKNSVA | WASTRES | QQYHRLPHS | not detected | 0/3 |
| KSIQSVPYESRNKNSVA | TASTRES | QQYHRLPLS | 9.1 nM | 3/3 |
| KSSQHVTYASRNKNSVA | WASTRES | QQYHRLPLS | 29 nM | 3/3 |
| KSSQSVDYESRNKNTVA | WASTRES | HQYHRLPLS | 46 µM | 2/3 |
| KSSQSVGYESRNKQSVA | WASTRES | QQYHRLPLI | 33 nM | 3/3 |
| KSSQSVCYQSRNKNSVN | WASTRES | QQYHRLPLS | not detected | 0/3 |
| KSHQSVHYESRNWNSVA | WASTRES | QQYHRLPLS | 770 nM | 3/3 |
| KKSQSVIYESRNKNSVA | WNSTRES | QQYHRLPLS | not detected | 0/3 |
| KSSQSVHYESRNKLSVA | WASTRES | QQYHRLPLS | 53 µM | 3/3 |
| KSSQSVYYVSRNKNSVA | WASTRES | QQYHRLPTS | not detected | 0/3 |
| KSSQSVKYESRNKNHVA | WASTRES | QQYDRLPLS | 21 nM | 3/3 |
| KSSQHVDYESSNKNSVA | WASTRES | QQYHRLPLS | 5.8 nM | 3/3 |
| KSSQSVWVESRNKVSVA | WASTRES | QQYHRLPLS | 42 nM | 3/3 |
| KSSQSVKYESRTKNSVA | WASTRES | QQYHRLPLS | 180 nM | 3/3 |
| KSSQSVQGETRNKNSVA | WASTRES | QQYHRLPLS | 1.9 nM | 3/3 |
| KSSQSVPYESRNLNSVA | WAETRES | QQYHRLPLS | 170 nM | 3/3 |
| KSSQSVWYESRKKNSVA | WASTRFS | QQYHRLPLS | 54 nM | 3/3 |
| KSSQSVTYESRNKYSVA | WMSTRES | QQYHRLPLS | 58 nM | 3/3 |
| KSSQSVKYESRNKNSVA | PASTRES | QQYHRLPLS | 22 µM | 2/3 |
| KSSQSVMYESRNENSVA | WASTRMS | QQYHRLPLS | 6.3 nM | 3/3 |
| KSSQSVDYESMAKNSVA | WASTRES | QQYHRLPLS | 5.0 nM | 3/3 |
| KSSQSVNYESRNKNSVA | WASTRES | QQYHDLPQS | not detected | 0/3 |
| KSSQSVHYESRNKASVA | WASNRES | QQYHRLPLS | 89 nM | 3/3 |
| KSSQQVIYESRNKNSVA | WASTRES | QQYHRLPSS | not detected | 0/3 |

A selection of 4 entries from above:

{"CDR-L1": "ASSHSVCYESRNKNSVA", "CDR-L2": "WASTRES", "CDR-L3": "QQYHRLPLS", "apparent Kd": "500 nM", "seen in": "3/3"}
{"CDR-L1": "KSSQSGKYESRNKVSVA", "CDR-L2": "WASTRES", "CDR-L3": "QQYHRLPLS", "apparent Kd": "not detected", "seen in": "0/3"}
{"CDR-L1": "KSSQSVPYESRNLNSVA", "CDR-L2": "WAETRES", "CDR-L3": "QQYHRLPLS", "apparent Kd": "170 nM", "seen in": "3/3"}
{"CDR-L1": "KSSQSVQGETRNKNSVA", "CDR-L2": "WASTRES", "CDR-L3": "QQYHRLPLS", "apparent Kd": "1.9 nM", "seen in": "3/3"}